Experiments:
[1] = test system: DU145; assay: Proliferation assay, DU145; assay type: cell-based; settings: Homo sapiens, DU-145, 96 h, DU145 cells, 4 days, crystal violet
Source text: Cultivated human tumor cells (MCF7, […] human breast cancer cells, related to ATCC HTB22; NCI-H460, human non-small-cell lung cancer cells, ATCC HTB-177, HCT 116, human colon cancer cells, ATCC CCL-247; DU 145, hormone-independent human prostate cancer cells, ATCC HTB-81; MaTu-MDR, hormone-independent, multiple pharmaceutical agent-resistant human breast cancer cells, EPO-GmbH, Berlin) were flattened out at a density of about 5000 cells/measuring point, depending on the growth rate of the respective cells, in a 96-well multititer plate in 200 μl of the corresponding growth medium. […] The cell proliferation was determined by coloring the cells with crystal violet: the cells were fixed by adding 20 μl/measuring point of an 11% glutaric aldehyde solution for 15 minutes at room temperature. […] The extinction was determined by photometry at a wavelength of 595 nm The change of cell growth, in percent, was calculated by normalization of the measured values to the extinction values of the zero-point plate (=0%) and the extinction of the untreated (0 μm) cells (=100%).

Chains of the proteins cited; added tags and fusions are not shown.
UniProt P06493, whole entry: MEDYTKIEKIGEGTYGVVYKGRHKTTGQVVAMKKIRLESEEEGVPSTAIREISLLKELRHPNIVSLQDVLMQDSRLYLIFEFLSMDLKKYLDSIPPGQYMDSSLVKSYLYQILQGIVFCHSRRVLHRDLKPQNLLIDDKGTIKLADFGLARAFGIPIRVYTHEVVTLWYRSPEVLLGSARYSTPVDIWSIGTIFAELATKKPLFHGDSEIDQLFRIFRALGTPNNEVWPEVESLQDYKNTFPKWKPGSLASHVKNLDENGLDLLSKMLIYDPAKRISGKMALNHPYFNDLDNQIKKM

[2] = biological target: CDK2/CycE (Homo sapiens (Human), UniProt P24941); assay: CDK2/CycE kinase assay; assay type: biochemical; settings: histone IIIS substrate, 0.5 μm ATP
[3] = biological target: CDK1/CycB (Homo sapiens (Human), UniProt P06493); assay: CDK1/CycB kinase assay; assay type: biochemical; settings: histone IIIS substrate, 0.5 μm ATP

| SMILES | IC50 [1] | IC50 [2] | IC50 [3] |
| --- | --- | --- | --- |
| CCS(=N)(=O)c1ccc(Nc2ncc(Br)c(N[C@H](C)C(C)(C)O)n2)cc1 (single isomer, unassigned) [Example 1.56] | 70 nM | 24 nM | – |
| COc1cc(Nc2ncc(Br)c(N[C@H](C)[C@@H](C)O)n2)ccc1S(C)(=N)=O (single isomer, unassigned) [Example 1.27] | – | – | 3 nM |
| C[C@@H](O)[C@@H](C)Nc1nc(Nc2ccc(S(C)(=N)=O)cc2)ncc1Br (single isomer, unassigned) [Example 1.44] | – | 2 nM | – |

Source: patent US8507510B2, “Sulfoximine-substituted pyrimidines as CDK- and/or VEGF inhibitors, their production and use as pharmaceutical agents” (Bayer Intellectual Property GmbH, priority 2003, dated 2013)
